Only a part is listed here, and it is no random draw. Some of these compounds have results that are not shown, active ones among them. Activity calls are given as the source filed them. No stated cut-off is given here; in the data, active means inhibition above about 32% (passing the limit was not always enough); inconclusive means no clear call, values can overlap the other calls.
target: Cathepsin S (Homo sapiens) (UniProt P25774); assay: blockers of CTSS protease activity – biochemical, compound mixtures (AID 501); conditions: recombinant cathepsin S, AMC dipeptide fluorescence, pooled mixtures; stronger effect = higher value;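 tested at 5 µM per compound within 10-compound mixtures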;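 further: 0% = enzyme without compound and 100% = blank without enzyme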

By UniProt entry, the sequences of proteins in these tests, tags left out. Residues count along the entry.
UniProt P25774, 115-331 limits assumed: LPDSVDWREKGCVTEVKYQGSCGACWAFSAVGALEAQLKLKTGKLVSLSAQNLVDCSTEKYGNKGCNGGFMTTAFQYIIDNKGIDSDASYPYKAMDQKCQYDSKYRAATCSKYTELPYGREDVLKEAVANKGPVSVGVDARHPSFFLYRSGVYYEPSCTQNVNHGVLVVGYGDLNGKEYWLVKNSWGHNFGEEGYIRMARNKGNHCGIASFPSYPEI

Row | SMILES | inhibition
1 | CN(C)c1cccc(C(=O)NCC2(N(C)C)CCCCC2)c1 | inactive: 10.4%
2 | O=C(OC1CN2CCC1CC2)C(CO)(c1ccccc1)c1ccccc1 (configuration not stated) | inactive: 2.46%

Source: PubChem BioAssay AID501 (PCMD, 2006)
